The values below come from patent US20170151192A1, “METHODS, COMPOSITIONS AND DEVICES FOR TREATMENT OF MOTOR AND DEPRESSION SYMPTOMS ASSOCIATED WITH PARKINSON'S DISEASE” (N TO B LTD., priority 2013, published 2017).

Chains of the proteins cited; added tags and fusions are not shown.
UniProt P21396, whole entry: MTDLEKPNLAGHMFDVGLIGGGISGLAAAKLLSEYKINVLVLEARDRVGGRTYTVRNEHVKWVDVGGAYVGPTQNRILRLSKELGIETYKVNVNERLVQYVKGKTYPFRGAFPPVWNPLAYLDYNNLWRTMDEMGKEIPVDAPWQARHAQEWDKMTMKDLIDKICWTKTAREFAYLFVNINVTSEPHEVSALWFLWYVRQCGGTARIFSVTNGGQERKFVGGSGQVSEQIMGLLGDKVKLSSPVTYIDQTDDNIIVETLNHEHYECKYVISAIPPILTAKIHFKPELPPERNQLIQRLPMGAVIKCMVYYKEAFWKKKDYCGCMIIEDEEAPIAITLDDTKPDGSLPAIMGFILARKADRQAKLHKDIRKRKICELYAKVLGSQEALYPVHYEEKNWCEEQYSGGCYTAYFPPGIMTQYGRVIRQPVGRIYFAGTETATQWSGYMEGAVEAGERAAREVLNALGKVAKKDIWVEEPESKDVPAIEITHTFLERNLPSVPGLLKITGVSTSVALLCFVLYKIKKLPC
UniProt P19643, whole entry: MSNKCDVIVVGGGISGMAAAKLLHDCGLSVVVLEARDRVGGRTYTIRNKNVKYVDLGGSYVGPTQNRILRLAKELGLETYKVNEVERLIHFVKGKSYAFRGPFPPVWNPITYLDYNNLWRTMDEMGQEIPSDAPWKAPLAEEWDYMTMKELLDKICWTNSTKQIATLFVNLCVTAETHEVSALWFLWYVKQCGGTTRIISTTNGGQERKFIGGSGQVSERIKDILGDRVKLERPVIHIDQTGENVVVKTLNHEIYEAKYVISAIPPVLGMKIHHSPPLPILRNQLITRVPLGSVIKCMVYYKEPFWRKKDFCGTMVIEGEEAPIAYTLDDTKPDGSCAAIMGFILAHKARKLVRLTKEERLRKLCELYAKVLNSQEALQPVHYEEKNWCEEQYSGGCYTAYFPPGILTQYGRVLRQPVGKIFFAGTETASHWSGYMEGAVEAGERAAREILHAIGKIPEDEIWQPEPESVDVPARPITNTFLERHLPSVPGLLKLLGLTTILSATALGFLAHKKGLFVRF

Read-outs that look alike come from different tables or passages of the source.

One test deals with MAO-A (Rattus norvegicus, UniProt P21396). Put plainly: in vivo. To be noted: inhaled or nasal. As for the experimental part:
(§1) Control liquid formulations included vehicle only.
(§2) The animals were acutely administered intranasally and sacrificed 4 hours following drug/vehicle administration. The brain regions, hippocampus and striatum, as well as the small intestine were dissected out. […] In brief, samples were dissected out at 4° C. and homogenized. Homogenates were incubated with [C^14]serotonin for 30 minutes (final concentration 100 μM) as a substrate for MAO-A, or with [C^14]phenylethylamine for 20 minutes (final concentration 100 μM) as a substrate for MAO-B. The radioactivity was determined by liquid- scintillation.

The next test concerns the target MAO-B (Rattus norvegicus, UniProt P19643). Briefly: in vivo. The note with it: inhaled or nasal. As for the experimental part: as §1, §2

For `C#CCN[C@@H]1CCc2ccccc21` [Rasagiline, N-propargyl-1-(R)-aminoindan], the inhibition at 6 mg/kg was 96% at MAO-A (read-out: MAO-A inhibition, Brain, intranasal, 6 mg/kg powder formulation, 4 h); 93% at MAO-A (read-out: MAO-A inhibition, Hippocampus, intranasal, 6 mg/kg powder formulation, 4 h); 94% at MAO-A (read-out: MAO-A inhibition, Liver, intranasal, 6 mg/kg powder formulation, 4 h); 94% at MAO-A (read-out: MAO-A inhibition, Striatum, intranasal, 6 mg/kg liquid formulation, 4 h); 99% on MAO-B (read-out: MAO-B Inhibition, Brain, intranasal, 6 mg/kg liquid formulation, 4 h); 98% on MAO-B (read-out: MAO-B Inhibition, Brain, intranasal, 6 mg/kg powder formulation, 4 h). For the same compound, the inhibition at 6 mg/kg on MAO-B (read-out: MAO-B Inhibition, Hippocampus, intranasal, 6 mg/kg powder formulation, 4 h) came out at 99%; on MAO-B (read-out: MAO-B Inhibition, Liver, intranasal, 6 mg/kg liquid formulation, 4 h), 98%; at MAO-B (read-out: MAO-B Inhibition, Liver, intranasal, 6 mg/kg powder formulation, 4 h), 98%. For the same compound, the inhibition at 0.6 mg/kg at MAO-A (read-out: MAO-A inhibition, Hippocampus, intranasal, 0.6 mg/kg powder formulation, 4 h) is 66%; at MAO-A (read-out: MAO-A inhibition, Striatum, intranasal, 0.6 mg/kg liquid formulation, 4 h), 35%; at MAO-B (read-out: MAO-B Inhibition, Brain, intranasal, 0.6 mg/kg liquid formulation, 4 h) it was 96%; at MAO-B (read-out: MAO-B Inhibition, Brain, intranasal, 0.6 mg/kg powder formulation, 4 h), 96%; at MAO-B (read-out: MAO-B Inhibition, Hippocampus, intranasal, 0.6 mg/kg powder formulation, 4 h), 97%; at MAO-B (read-out: MAO-B Inhibition, Liver, intranasal, 0.6 mg/kg liquid formulation, 4 h) it was 93%. Moreover, the inhibition at 0.6 mg/kg at MAO-B (read-out: MAO-B Inhibition, Liver, intranasal, 0.6 mg/kg powder formulation, 4 h) was 95%. Also, the inhibition at 1.5 mg/kg at MAO-A (read-out: MAO-A inhibition, Liver, intranasal, 1.5 mg/kg powder formulation, 4 h) was 77%; on MAO-A (read-out: MAO-A inhibition, Striatum, intranasal, 1.5 mg/kg powder formulation, 4 h), 67%; at MAO-B (read-out: MAO-B Inhibition, Hippocampus, intranasal, 1.5 mg/kg powder formulation, 4 h), 98%; on MAO-B (read-out: MAO-B Inhibition, Liver, intranasal, 1.5 mg/kg powder formulation, 4 h), 98%; on MAO-B (read-out: MAO-B Inhibition, Striatum, intranasal, 1.5 mg/kg powder formulation, 4 h (only cell filled in this column)), 98%.
